# Antibody variant affinities, Ab-95 light chain, assay 2

The target is the same throughout: PDVDLGDISGINAS, from the HR2 region of SARS-CoV-2 spike.

Ab-95 is the parent antibody, in scFv form: VH, then a (GGGGS)3 linker, then VL. The heavy chain is unchanged in all variants.
VH: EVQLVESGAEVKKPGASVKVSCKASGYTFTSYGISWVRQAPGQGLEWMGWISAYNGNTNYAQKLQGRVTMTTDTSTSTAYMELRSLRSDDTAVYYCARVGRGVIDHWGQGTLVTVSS
VL: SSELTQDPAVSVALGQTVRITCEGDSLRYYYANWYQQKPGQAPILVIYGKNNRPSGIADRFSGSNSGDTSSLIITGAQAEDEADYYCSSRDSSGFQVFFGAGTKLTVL

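AAYL52 was designed without a model: most single CDR substitutions and a random sample of double and triple ones. In AlphaSeq, yeast of one mating type display the scFv and yeast of the other type display the target. After mating in shaken culture at 30 °C for 16 h, diploids were selected and their barcode pairs sequenced. A regression on co-assayed BCL2-family reference pairs converts the normalised counts of each replicate to an apparent Kd. There are three technical replicates.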

Substitutions are numbered in sequence along the VL above, starting at 1 (not Kabat).
Scale: log10 of Kd in nM, estimated from mating counts; low values are strong binders.
Replicates are averaged; those with no signal do not enter the mean.
An entry "not detected" has no value in the source: the pair was not observed among the diploids in any replicate. This suggests poor binding but is not conclusive.
Parent in this assay: reference entry 2.31, copy in this library 2.25.
Background: pairings of library AAYL52 with three empty control strains gave a value in 28% of cases (median 3.91, 5th percentile 2.90). Values in that range, when seen in few replicates, are hard to tell from nonspecific mating.

| log10 Kd (nM), mean | replicates with signal | changes |
|---|---|---|
| 2.68 | 3 of 3 | N33P/P54A/F98V |
| 2.12 | 3 of 3 | E23K/S55V/S88D |
| 2.86 | 2 of 3 | S89M/S92A/F95I |
| not detected | 0 of 3 | R28E/S88I/R90M |
| 3.19 | 3 of 3 | S88H/D91Y/Q96A |
| 4.96 | 1 of 3 | E23K/K50D/S89I |
| 5.23 | 1 of 3 | Y30P/S55C/R90A |
| 2.45 | 3 of 3 | Y31Q/A32K/K50M |
| 4.06 | 1 of 3 | Y30G/A32F/D91G |
| 1.24 | 3 of 3 | R28D/Y30A/R90H |
| 1.32 | 3 of 3 | Y31A/K50H/D91Y |
| not detected | 0 of 3 | G24N/R28N/G49K |
| 2.88 | 3 of 3 | G24E/K50W/S55K |
| 2.49 | 3 of 3 | N52A/S89H/S92F |
| 2.61 | 3 of 3 | N33H/N51E/F95G |
| 3.64 | 3 of 3 | R53T/G94H/V97W |
| 4.10 | 1 of 3 | A32D/G49F/P54W |
| 3.93 | 2 of 3 | E23V/A32R/G94K |
| 2.26 | 3 of 3 | S88E/S93C/G94C |
| 3.30 | 1 of 3 | N33R/P54D/Q96W |
| 0.98 | 3 of 3 | Y31P/N52A |
| 4.09 | 1 of 3 | A32E/K50I/D91I |
| 4.83 | 1 of 3 | D25F/N51M/R90M |
| not detected | 0 of 3 | E23V/S55M/R90F |
| 4.99 | 1 of 3 | R28P/G49L/D91G |
| not detected | 0 of 3 | L27R/K50R/N51S |
| 2.89 | 3 of 3 | S55G/G94M/F98A |
| 4.09 | 1 of 3 | R28G/R53W |
| 1.22 | 3 of 3 | E23Q/K50Q/S55N |
| not detected | 0 of 3 | R53W/S89E/S93R |
| 3.95 | 2 of 3 | Y30V/S93V/F98V |
| 3.65 | 1 of 3 | N33E/S92Q/F95M |
| 2.75 | 3 of 3 | R28L/N51G/R90Y |
| 4.40 | 1 of 3 | S26Q/S88H |
| 2.83 | 3 of 3 | Y31V/P54C/S92K |
| not detected | 0 of 3 | G24R/N52W/F98L |
| 2.11 | 3 of 3 | G24R/Y30D/D91S |
| 2.74 | 2 of 3 | G24P/Y29L/Y31P |
| not detected | 0 of 3 | S26I/N52K/S55L |
| 3.22 | 3 of 3 | E23N/R90Y/S93E |
| 3.58 | 3 of 3 | Y30S/N33I/S89N |
| 3.76 | 1 of 3 | Q96I/V97D |
| 5.41 | 1 of 3 | L27E/P54C/S92N |
| not detected | 0 of 3 | G24V/S55L/R90N |
| 3.62 | 3 of 3 | D25F/K50W/S92C |
| 4.10 | 2 of 3 | D25C/R28L/V97L |
| 2.85 | 3 of 3 | S26I/Y30N/S93C |
| 3.66 | 2 of 3 | N51Q/S89F/R90L |
| 3.93 | 1 of 3 | A32L/S55Y/G94Q |
| 2.27 | 3 of 3 | E23K/Y29W/P54D |
| 5.00 | 2 of 3 | G49C/P54E/S93Y |
| 4.16 | 2 of 3 | N33F/R90I/Q96D |
| 4.76 | 2 of 3 | N51P/Q96D |
| 3.33 | 3 of 3 | Y30K/A32N/Q96F |
| not detected | 0 of 3 | N33E/G49I/Q96E |
| 3.57 | 3 of 3 | N52R/P54M/F98Q |
| 2.62 | 3 of 3 | E23G/R53A/R90H |
| 3.60 | 1 of 3 | A32Q/N51E/R53C |
| 3.45 | 1 of 3 | L27K/N51R/R53I |
| 4.34 | 1 of 3 | G24L/L27C/G94V |
| 3.88 | 3 of 3 | K50D/N51V/G94V |
| 4.14 | 1 of 3 | N51G/S93W/V97I |
| 3.09 | 3 of 3 | R28Y/K50C/S92P |
| 3.07 | 3 of 3 | D25F/Y30W/S88W |
| 4.37 | 2 of 3 | D25F/P54W/Q96N |
| 3.21 | 1 of 3 | L27G/S55Q/R90E |
| 4.02 | 3 of 3 | Y29I/A32N/R53S |
| 3.59 | 2 of 3 | G24R/Y29P/S89D |
| 4.59 | 2 of 3 | E23D/N33T/G49R |
| 4.21 | 2 of 3 | E23Y/R53W/Q96L |
| not detected | 0 of 3 | Y30I/G49E/R53H |
| 4.18 | 2 of 3 | G49P/P54H/F98I |
| 4.24 | 3 of 3 | R28I/N33Y/G49C |
| 4.67 | 2 of 3 | S26C/S88R/Q96V |
| 4.87 | 2 of 3 | G24L/R90W/D91K |
| 3.67 | 3 of 3 | R28K/S88Y/S93H |
| 3.70 | 2 of 3 | E23T/Y29I/P54R |
| 5.25 | 1 of 3 | N51C/S93L |
| 3.89 | 1 of 3 | R28F/G49E/D91P |

The first 10 variants above that were never detected:

changes,"log10 Kd (nM), mean",replicates with signal
R28E/S88I/R90M,not detected,0 of 3
G24N/R28N/G49K,not detected,0 of 3
E23V/S55M/R90F,not detected,0 of 3
L27R/K50R/N51S,not detected,0 of 3
R53W/S89E/S93R,not detected,0 of 3
G24R/N52W/F98L,not detected,0 of 3
S26I/N52K/S55L,not detected,0 of 3
G24V/S55L/R90N,not detected,0 of 3
N33E/G49I/Q96E,not detected,0 of 3
Y30I/G49E/R53H,not detected,0 of 3

Values reported by Engelhart et al. 2022, doi:10.1038/s41597-022-01779-4 (FLAb copy).